{"source": "patent US20020161528A1", "about": "“Tool for lipophilicity determination in drug discovery basic and neutral compounds” (Pfizer Inc., priority 2001, published 2002)", "key": {"[1]": {"details": "Table 1"}, "[2]": {"details": "Table 1; average of literature references only; pH 7.4; cited from earlier work"}}, "note": "This is a selection: effects in other tests are not listed, and their absence says nothing."}
{"smiles": "CCC(=O)N(c1ccccc1)C1CCN(CCc2ccccc2)CC1", "values": [{"measurement": "Res (logDoct − ElogDoct)", "setting": "[1]", "value": 0.52}, {"measurement": "log k′w", "setting": "[1]; capacity factor extrapolated to 0% methanol, average of three to five determinations, pH 7.4", "value": 1.94}, {"measurement": "ElogDoct", "setting": "[1]; from log k′w by Equation 1, pH 7.4", "value": 2.39}, {"measurement": "logDoct", "setting": "[2]", "value": 2.91}]}
